From US20240279332A1 (Amgen, published 2024)
Substitutions are numbered along the chain they refer to. One block for each binder: values may come before it.

The chains behind the UniProt entries cited, without tags or fusion partners. Residues count along the entry.
UniProt Q9NP99, 21-205 limits assumed: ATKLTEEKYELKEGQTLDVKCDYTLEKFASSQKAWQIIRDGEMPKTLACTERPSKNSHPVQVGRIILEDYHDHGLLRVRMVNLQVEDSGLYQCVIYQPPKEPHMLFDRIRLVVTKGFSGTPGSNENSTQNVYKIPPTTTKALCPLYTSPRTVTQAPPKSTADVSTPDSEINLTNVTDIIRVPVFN
UniProt Q9NP99, 21-234 limits assumed: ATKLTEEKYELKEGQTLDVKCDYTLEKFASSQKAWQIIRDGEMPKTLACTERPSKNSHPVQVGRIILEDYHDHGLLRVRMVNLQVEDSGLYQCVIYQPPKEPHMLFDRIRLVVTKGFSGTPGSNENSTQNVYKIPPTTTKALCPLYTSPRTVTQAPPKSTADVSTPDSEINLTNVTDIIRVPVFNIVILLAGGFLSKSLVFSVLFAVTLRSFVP

Legend:
[1] = biological target: T1, biotinylated human TREM-1-His antigen (human, UniProt Q9NP99 21-205, biotinylated in-house, site not stated); assay: limiting antigen assay, FACS on LumAvidin beads coated with 7.5 ng/mL biotinylated human TREM-1-His; antibody 5 ug/mL
T1 construct: Soluble TREM-1; also called b-huTREM-1-His; Soluble TREM1
Description: TREM-1 Antibody Relative Affinity Ranking by Limiting Antigen Assay: TREM1 hybridoma supernatants were affinity-ranked within the panel by their binding kinetics to soluble TREM-1 in a limiting antigen assay using LUMAVIDIN® beads (Luminex) on FACS. Briefly, in-house biotinylated human TREM-1-His antigen (b-huTREM-1-His) was serially diluted in FACS buffer and combined with an equal volume of LUMAVIDIN® beads (different uniquely-barcoded bead for each antigen concentration), resulting in a 5-point 2-fold serial dilution series starting from a final b-huTREM-1-His antigen concentration of 30 ng/mL. The antigen-bead mixtures were plated across 3 wells in a 96-well FACS plate, then incubated for 30 minutes at room temperature protected from light. Beads were then pelleted by centrifugation, supernatant was removed by flicking, and wells were washed twice with 200 μL/well of FACS buffer. The different beads were then resuspended, pooled, and diluted in STABILGUARD® Immunoassay Stabilizer (SurModics) to block non-specific binding. Normalized TREM-1 hybridoma supernatants were combined with an equal volume of bead mixture in a FACS plate at a final concentration of 5 μg/mL test antibody to 0.5 μL beads/well. The plates were then shaken and incubated overnight for ˜18 hours at room temperature. Beads were then pelleted by centrifugation, supernatant was removed by flicking, and wells were washed twice with 200 μL/well of FACS buffer. ALEXA FLUOR® 488 Goat anti-Human IgG Fc secondary detection antibody (Jackson ImmunoResearch) was added at 5 μg/mL to the plates, shaken, and incubated for 15 minutes at room temperature protected from light. Beads were washed with FACS buffer, pelleted by centrifugation, supernatant was removed by flicking, and washed once more with FACS buffer. The beads were then resuspended and run on the BD ACCURI™ C6 Flow Cytometer with Intellicyt […]® autosampler.
The antibody binding signal correlates with antibody affinity; the degree of antibody binding to the target antigen TREM-1 correlates with the measured fluorescent intensity and thus allows a relative comparison of affinities across the panel.

cyno TREM-1 on cells = biological target: T2, cyno TREM-1 on cells (cynomolgus monkey, UniProt A0A2K5VHG8 21-233); assay: FACS on HEK293 co-transfected with cyno TREM-1 and DAP12; hybridoma supernatant 2.5 ug/mL; geomean fold over irrelevant control antibody
T2 construct: whole, on cells; On HEK293 cells co-transfected with DAP12, or native on cynomolgus PBMCs; also called cynomolgus TREM-1; TREM-1 receptor in cynomolgus monkey PBMCs
T2 sequence: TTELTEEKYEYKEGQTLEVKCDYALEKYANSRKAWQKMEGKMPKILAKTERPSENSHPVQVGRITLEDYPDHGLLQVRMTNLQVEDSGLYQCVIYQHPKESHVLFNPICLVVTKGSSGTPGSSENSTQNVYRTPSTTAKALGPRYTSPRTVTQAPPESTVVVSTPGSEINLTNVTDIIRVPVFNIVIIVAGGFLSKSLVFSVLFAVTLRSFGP
Description: (§1) The TREM-1-specific antibodies identified in primary screening were evaluated for cross-reactivity to cynomolgus TREM-1, as well as specificity to TREM-1 and not DAP12. TREM-1 hybridoma supernatants were tested for binding to human or cyno TREM-1 transiently expressed on HEK293 cells by FACS (harvests 1-6) or by […]™ (harvests 8-9). […] The following day, transfected HEK293 cells were transferred into 96-well FACS plates at 50,000 cells/well and incubated with normalized hybridoma supernatants at a final concentration of 2.5 μg/mL for 1 hour at 4° C. Cells were then pelleted by centrifugation, supernatant was removed by flicking, and wells were washed twice with 200 μL/well of FACS buffer. 5 μg/mL ALEXA FLUOR® 647 Goat anti-Human IgG Fc (Jackson ImmunoResearch) secondary detection antibody and 2.5 μg/mL 7-aminoactinomycin-D (Sigma) viability stain were incubated with the cells for 15 minutes at 4° C. Cells were pelleted by centrifugation, supernatant was removed by flicking, and wells were washed once more with 200 μL/well of FACS buffer. TREM-1 hybridoma supernatants showing human TREM-1- or cyno TREM-1-specific binding was detected by FACS on the BD ACCURI™ 06 flow cytometer with Intellicyt autosampler. The data was reported as geomean (GM) fold over irrelevant control antibody binding.

[2] = biological target: T3, human TREM-1 (TrigGering Receptor Expressed on Myeloid cells 1) on cells (human, UniProt Q9NP99 21-234); assay: FACS on HEK293 co-transfected with human TREM-1 and DAP12; hybridoma supernatant 2.5 ug/mL; geomean fold over irrelevant control antibody
T3 construct: also called human TREM1/DAP12; TREM-1/DAP12
Description: as §1

[3] = biological target: T3, human TREM-1 (TrigGering Receptor …); assay: cell-based or functional assay

Soluble TREM1 7.5 ng/mL (FACS Geomean) [1]: 25300 | Cyno TREM1 GM Fold (cyno TREM-1 on cells): 2340 fold | Human TREM1 GM Fold [2]: 719 fold
B1: 57F5 (antibody, V domains shown)
VH: EVQLLESGGGLVQPGGSLRLSCAASGFTFSSYAMTWVRQAPGRGLQWVSTISGSGSNTYYADSVKGRFTISRDNSKNTLYLQMSSLRAEDTAVYYCAKEGGSNRYFHHWGQGTLVTISS
VL: DIQMTQSPSSLSASVGDRVTITCRASQSISSNLNWYQQKPGKAPKLLISAASNLQSGVPSRFSGSESGTDFTLTISSLQSEDFATYYCQQSDSLPLTFGGGTKVEINR
notes: also called TREM1 antibody 57F5

Fab IC50-pSYK Assay (Trial 1), human TREM-1/Dap12-HEK293, PGLYRP1/PGN [3]: 2850 pM
B2: 50A12 Fab (Fab, V domains shown)
VH: EVQLVESGGGLVQPGGSLRLSCAASGFTFSSYWMSWVRQAPGKGLEWVANIKQDGSEEYYVDSVKGRFTISRDNAKNSLFLQMNSLRAEDTAVYYCARDYGDSFDYWGQGTLVTVSS
VL: DIQMTQSPSSVSASVGDRVTITCRASQGIRKWLAWYQQKPGRAPKLLIYAASRLQSGVPSRFSGSGSGTDFTLTISSLRPEDFATYYCLQAHGFPWTFGQGTKVEIK

Fab IC50-pSYK Assay (Trial 1), human TREM-1/Dap12-HEK293, PGLYRP1/PGN [3]: 387 pM | Fab IC50-pSYK Assay (Trial 2), human TREM-1/Dap12-HEK293, PGLYRP1/PGN [3]: 186 pM
B3: 61G5 Fab (Fab, V domains shown)
VH: QVQLVQSGAEVKKPGASVKVSCKASGYTFTSYDINWVRQATGQGLEWMGWMNPNSGNSGSVKKFRDRVTMTRNTSISTAYMELSSLRSEDTAVYYCVRLIGYSSAWKWSFQHWGQGTLVTVSS
VL: DIQMTQSPSSLSASVGDRVTITCQASRDISKYLNWYQQKPGKAPKLQIYDASNLETGVPSRFSGSGSGTDFTFTISSLQPEDIATYYCQHYDNIPITFGQGTRLEIK

Fab IC50-pSYK Assay (Trial 1), human TREM-1/Dap12-HEK293, PGLYRP1/PGN [3]: 189 pM | Fab IC50-pSYK Assay (Trial 2), human TREM-1/Dap12-HEK293, PGLYRP1/PGN [3]: 325 pM
B4: 44A5 Fab (Fab, V domains shown)
VH: EVQLLESGGGLVQPGGSLRLSCAASGFTFSTYAMNWVRQAPGKGLEWVSTVSGSGRPTYYADSVKGRFTISRDNSKNTLYLQMNSLRAEDTAVYYCAKAYYSNYLFDYWGQGTLVTVSS
VL: EIVMTQSPAILSVSPGERATLSCRASQSVSSNLAWYQQKPGQAPRLLIYGASTRATGVPARFSGGGSGTDFTLTISSLQSEDFAVYYCQHCKTWPPLTFGGGTKVDLK

Fab IC50-pSYK Assay (Trial 1), human TREM-1/Dap12-HEK293, PGLYRP1/PGN [3]: 273 pM | Fab IC50-pSYK Assay (Trial 2), human TREM-1/Dap12-HEK293, PGLYRP1/PGN [3]: 583 pM
B5: 57C10 Fab (Fab, V domains shown)
VH: QVQLVQSGAEVKKPGASVKVSCKASGYTFTRYDINWVRQATGQGLEWMGWLNPNSGNTGQTQKFRGRVTMTRNTSINTAYMELSSLRSEDTAVYYCARGGYTSAWRWYFDLWGRGTLVTVSS
VL: DIQMTQSPSSLSASVGDRVTITCQASQDINNHLNWYQQKPGKAPKLLIYDVSNLETGVPSSFSGSGCGTDFTFTISSLQPEDIATYFCQQYDKLPLTFGGGTKVEIE

Fab IC50-pSYK Assay (Trial 1), human TREM-1/Dap12-HEK293, PGLYRP1/PGN [3]: 45.2 pM | Fab IC50-pSYK Assay (Trial 2), human TREM-1/Dap12-HEK293, PGLYRP1/PGN [3]: 38 pM
B6: 63F8 Fab (Fab, V domains shown)
VH: QVQLVQSGAEVKKPGASVKVSCKASGYTFTSYDINWVRQATGQGLEWMGRMNPKSGNAGYVQNFRGRVTMTRNTSISTAYMELSSLRSEDTAVYYCARGGRTSIWSFVFDYWGQGTLVTVSS
VL: B5 VL with N30S, N31K, V51T, S61R, C67S, F87N, E107K

Fab IC50-pSYK Assay (Trial 1), human TREM-1/Dap12-HEK293, PGLYRP1/PGN [3]: 112 pM | Fab IC50-pSYK Assay (Trial 2), human TREM-1/Dap12-HEK293, PGLYRP1/PGN [3]: 569 pM
B7: 61B12 Fab (Fab, V domains shown)
VH: QVQLVQSGAEVTKPGASVKVSCKASGYTFTRYDINWVRQATGQGLEWMGWMNPNSGNSGSVQKFRGRVTMTRNTSITTVYMELSSLRSDDTAVYYCARGGISSSWHWAFDIWGQGTMVTVSS
VL: B5 VL with D50G, V51A, S52Y, N53T, S61R, C67S, F87Y, E107K

Fab IC50-pSYK Assay (Trial 1), human TREM-1/Dap12-HEK293, PGLYRP1/PGN [3]: 314 pM | Fab IC50-pSYK Assay (Trial 2), human TREM-1/Dap12-HEK293, PGLYRP1/PGN [3]: 309 pM
B8: 34D1 Fab (Fab, V domains shown)
VH: B5 VH with L51M, T58S, Q60S, T61V, N77H, T78I, A104S
VL: B3 VL with T20N, R27Q, S30R, Y32H, K45N, Q47L, S52A, D70A, D92A, I94L

Fab IC50-pSYK Assay (Trial 1), human TREM-1/Dap12-HEK293, PGLYRP1/PGN [3]: 467 pM | Fab IC50-pSYK Assay (Trial 2), human TREM-1/Dap12-HEK293, PGLYRP1/PGN [3]: 374 pM
B9: 30H2 Fab (Fab, V domains shown)
VH: EVQVLESGGGLVQPGESLRLSCTASGFTFNAYAMSWVRQAPGKGLEWVSTISGSGSTTYYADSVKGRFTISRDNSKNTLDLQMNSLRAADTAVYYCAKVAGSNFFFDHWGQGTLVTVSS
VL: EIVMTQSPATLSVSPGERATLSCRASQSINSNLAWYQQKPGQAPRLLIYGAYTRATGIPDRFSGSGSGTEFTLTISSLQSEDFAVYYCQEFIMWPPWTFGLGTQVEIK

Fab IC50-pSYK Assay (Trial 1), human TREM-1/Dap12-HEK293, PGLYRP1/PGN [3]: 43.3 pM | Fab IC50-pSYK Assay (Trial 2), human TREM-1/Dap12-HEK293, PGLYRP1/PGN [3]: 117 pM
B10: 46H7 Fab (Fab, V domains shown)
VH: EVQLLESGGGMVQPGGSLRLSCAVSGFTFSRYAMSWVRQAPGKGLEWVSEMRGSSGSTYYADSVKGRFTISRDNSKNTLYLQMNSLRVEDTAIYYCAKEFSSNSLFDYWGQGTLVTVSS
VL: B9 VL with I29V, Q42R, Y52S, D60A, E90Q, I92Y, M93N, L101Q, Q104K

Fab IC50-pSYK Assay (Trial 1), human TREM-1/Dap12-HEK293, PGLYRP1/PGN [3]: 4660 pM
B11: 66B8 Fab (Fab, V domains shown)
VH: QVQLVQSGAEVKKPGASVKVSCKASGYTFTGYYMHWVRQAPGQGLEWMGWFKPNSGVTNYAQKFQGRVTMSRDTSISTAYMELSSLRSDDTAVYYCARAGYSTSWKDWFDPWGQGTLVTVSS
VL: DIQMTQFPSSVSASVGDRVTITCRASQGISRWLAWYQQKQGKAPKLLIYMVSSLQSGVPSRFSGSGSGTDFTLTISSLQPEDFATYYCQQSHNFPITFGQGTRLDIK

Fab IC50-pSYK Assay (Trial 1), human TREM-1/Dap12-HEK293, PGLYRP1/PGN [3]: 1180 pM | Fab IC50-pSYK Assay (Trial 2), human TREM-1/Dap12-HEK293, PGLYRP1/PGN [3]: 787 pM
B12: 49A2 Fab (Fab, V domains shown)
VH: EVQLVESGGGLVQPGGSLRLSCAASGFTFSSNWMSWVRQAPGKGLDWMASMKQDGSEIYYVDSVKGRFTISRDNAKNSLHLQMNSLRAEDTAVYYCVRGGWRFESWGQGALVTVSS
VL: EIVMTQSPATLSVSPGERATLSCRASQSVSSNLAWYQQKSGQAPRLLIYGASIRATGIPARVSGSGSGTEFTFTISSLQSEDFAVYYCQQYKNWPLTLGGGTKVEIK

Fab IC50-pSYK Assay (Trial 1), human TREM-1/Dap12-HEK293, PGLYRP1/PGN [3]: 229 pM | Fab IC50-pSYK Assay (Trial 2), human TREM-1/Dap12-HEK293, PGLYRP1/PGN [3]: 70 pM
B13: 64D7 Fab (Fab, V domains shown)
VH: QVQLVQSGAEVKKPGASVKVSCKASGYTFTSYDINWVRQATGQGLEWMGWMNPNRGNTGYVKKFQGRVTMTRNTSISTAYMELSSLRSEDTAVYYCARRRAVYRSSWEWYFDLWGRGTLVTVSS
VL: DTQMTQSPSSLSASEGDRVTITCQASQDIFNDLNWYQEKPGKAPKLLIYHASNLETGVPSRFSGSGSGTDYTFTISSLQPEDIATYYCQQYGNLPLTFGGGTKVEIK
